Test results taken from patent US8513229B2, “4-Azetidinyl-1-phenyl-cyclohexane antagonists of CCR2” (Janssen Pharmaceutica NV, priority 2009, dated 2013).

Target: T1, CCR2 (Homo sapiens, UniProt P41597)
T1 construct: host or cells: THP-1 human monocytic cells
T1 sequence (P41597 1-360 isoform P41597-2): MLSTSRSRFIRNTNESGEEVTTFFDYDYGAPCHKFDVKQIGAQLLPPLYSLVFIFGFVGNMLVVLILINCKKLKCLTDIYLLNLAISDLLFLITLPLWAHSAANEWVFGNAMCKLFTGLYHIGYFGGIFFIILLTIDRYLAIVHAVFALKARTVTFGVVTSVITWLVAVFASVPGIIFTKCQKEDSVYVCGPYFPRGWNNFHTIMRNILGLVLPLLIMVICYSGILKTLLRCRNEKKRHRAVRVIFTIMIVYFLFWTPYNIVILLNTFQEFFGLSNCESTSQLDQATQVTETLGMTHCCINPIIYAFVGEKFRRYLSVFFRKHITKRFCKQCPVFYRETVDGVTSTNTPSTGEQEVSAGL
Experiment: MCP-1 Receptor Binding Assay in THP-1 Cells
Experimental: MCP-1 Receptor Binding Assay in THP-1 Cells
Human monocytic cell line THP-1 cells were obtained from American Type Culture Collection (Manassas, Va., USA). […] The cell density was maintained […].
1 μM cold MCP-1 was used for nonspecific binding.

| Compound | IC50 [nM] |
| --- | --- |
| CN(C)c1cccc(C2(O)CCC(N3CC(NC(=O)CNC(=O)c4cccc(C(F)(F)F)c4)C3)CC2)c1 (single isomer, unassigned) [Example 39a, N-({1-[4-(3-Dimethylamino-phenyl)-4-hydroxy-cyclohexyl]-azetidin-3-ylcarbamoyl}-methyl)-3-trifluoromethyl-benzamide] | 15 |
| COC(=O)c1ccc(C2CCC(N3CC(NC(=O)CNC(=O)c4cccc(C(F)(F)F)c4)C3)CC2)cc1 (centres unmarked) [Example 9, 4-(4-{3-[2-(3-Trifluoromethyl-benzoylamino)-acetylamino]-azetidin-1-yl}-cyclohexyl)-benzoic acid methyl ester] | 80 |
